For assay [1], the system named is pERK in HCT-116 cells (KRAS G13D). Description: Phospho-ERK inhibition (AlphaLISA SureFire Ultra p-ERK 1/2), HCT116. The settings on record: for HCT116 pERK % Ymin: value in parentheses; for HCT116 pERK Ymin %: Ymin in brackets; for IC50: read-out: HCT116 pERK IC50; for HCT116 pERK % Ymin (lowest value of the IC50 curve): Ymin above −20% = minimal or no paradoxical activation. The essentials:
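Overnight-seeded cells received compound for an hour before lysis, and phospho-ERK1/2 was then measured with an AlphaLISA SureFire Ultra kit. Percent inhibition relative to vehicle, after trametinib background subtraction, gave IC50 by curve fitting.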
For orientation: In Alpha technology, singlet oxygen from a donor bead excites a nearby acceptor bead.

Assay [2] concerns pERK in NCIH1755 cells (BRAF G469A). Description: Phospho-ERK inhibition (AlphaLISA), NCIH1755. The conditions noted are these: for NCIH1755 pERK % Ymin: NCIH1755, value in parentheses; for IC50: read-out: NCIH1755 pERK IC50, NCIH1755. Here is the method:
(§1) All cancer cell lines (A375, A101D, A2058, RKO, HT29 SK-MEL 30, IPC298, HepG2, HCT-116, Lovo, SWV620, SW480, NCI-H358, NCI-H2122, Calu-6, NCIH2087, NCIH1755, NCIH1666 and Mewo) were obtained from ATCC and cultured in RPMI-1640 medium (Gibco) supplemented with 5% heat inactivated fetal bovine serum (FBS, Wisent) at 37° C. under 5% CO2. Cells were maintained in T175 flasks (Greiner). They were passaged by removing the culture medium, washing once in 10 mL of room temperature Phosphate Buffered Saline (PBS; Wisent) and incubating at 37° C. with 2 mL of 0.05% Trypsin (Thermo-Fisher). Trypsin was then inactivated by adding complete growth medium and the cells were then replated in a T175 culture dish at the appropriate dilution. All cell lines were routinely tested for mycoplasma contamination. Tissue type and mutational status of each cell line can be found in Table B.
(§2) AlphaLISA® SureFire® Ultra™ p-ERK 1/2 (Thr202/Tyr204) analysis was conducted on cells plated in 100 μL of complete RPMI-1640 growth medium in 96-well flat-bottomed transparent dishes (Costar) at a density indicated in Table C. Cells were maintained overnight at 37° C. under 5% CO2 before treatment with compounds' dilution series for one hour. The cell density in cells/cm^2 corresponds to cell number divided by the area of one well of a 96-well plate ([…]).
(§3) In a dilution series 100 μL/well of test substance dilution prepared in complete RPMI-1640 growth media was added to the cells. The dilution series is selected so that ten concentrations cover a range from 10 μM to 0.33 nM. If necessary the initial concentration of 10 μM is increased to 100 μM or lowered to 1 μM (as in the case of A375 and H1666 cells, which are generally more sensitive to the compounds) and further dilution is carried out accordingly. The final concentration of DMSO in the assay is set at 0.5%.
(§4) After treatment, media was removed and cells were lysed in 50 μL of 1× AlphaScreen Ultra Lysis Buffer (Perkin Elmer). The AlphaLISA® SureFire® Ultra™ p-ERK 1/2 (Thr202/Tyr2O4) (PerkinElmer) reactions were performed with 5 μL of cell lysate according to the manufacturer's specifications in 384-well proxyplates (Perkin Elmer) followed by overnight incubation of the reactions at room temperature in a humidified chamber. After completion of the reactions, the signals were recorded on an EnVision plate reader (Perkin Elmer) using built in AlphaLISA® settings.
(§5) The effect of each compound dilution on the pERK signal was expressed in % inhibition and calculated as follows. An internal 100% inhibition control ([…] trametinib, cat #HY-10999; MedChem Express; CAS #871700-17-3) was included in each plate and used as a measure of pERK background. First, the value obtained for trametinib was subtracted from each data point. The average of DMSO (vehicle) controls (set as 0% inhibition) was established and used to calculate % inhibition: % inhibition=100*(1-((pERK signalcompound)/(pERK signalDMSO)))
(§6) The ability of each compound to inhibit pERK signal was expressed as an IC50 value obtained by plotting the inhibition values for each data point of a dilution series and fitting the obtained curves using a log(agonist) versus response-variable slope (four parameters) function using GraphPadPrism (V7.0) or Dotmatics Screening Ultra platform.
(§7) When present, paradoxical pERK induction is inferred from the negative % inhibition values observed in the pERK IC50 curves of a compound.

Assay [3] has as its system pERK in NCIH2087 cells (BRAF L597V; KRAS Q61K). Briefly: Phospho-ERK inhibition (AlphaLISA), NCIH2087. The settings on record: for NCIH2087 pERK % Ymin: NCIH2087, value in parentheses; for IC50: read-out: NCIH2087 pERK IC50, NCIH2087. Here is the method: as §1, §2, §3, §4, §5, §6, §7
Assay [4] concerns pERK in NCI-H358 cells (KRAS-G12C). Briefly: Phospho-ERK inhibition (AlphaLISA), NCI-H358. The settings on record: for NCI-H358 pERK % Ymin: NCI-H358, value in parentheses; for IC50: read-out: NCI-H358 pERK IC50, NCI-H358. Here is the method:
as §1, §2, §3, §4, §5, §6, §7

Assay [5] relates to SW620 cells (KRAS-G12V). Briefly: Proliferation inhibition (CellTiter-Glo), SW620. The conditions noted are these: read-out: SW620 Prolif. EC50; SW620, 3 days. Here is the method:
as §1
CellTiter-Glo® viability analysis was conducted on cells plated in 100 μL of complete RPMI-1640 growth medium in 96-well flat-bottomed white opaque plates (Greiner or Croning) at a density indicated in Table E (for each CCL, number of cells plated per well of a 96-well plate to perform the CellTiter-Glo® cell viability assay). The cell density in cells/cm^2 would correspond to cell number divided by the area of one well of a 96-well plate (0.32 cm^2). Cells were maintained overnight at 37° C. under 5% CO2 before treatment with compounds' dilution series for 3 days.
In a dilution series 100 μL/well of test substance dilution prepared in complete RPMI-1640 growth media was added to the cells plated initially in 100 μL of growth media. The dilution series is selected so that ten concentrations cover a range from 10 μM to 0.33 nM. If necessary (as in the case of A375 cells, which were more sensitive to the compounds) the initial concentration of 10 μM is lowered to 1 μM and further dilution is carried out accordingly. The final concentration of DMSO in the assay is set at is 0.5%.
After 3 days of incubation, the growth media were removed by aspiration and 60 μL of diluted CellTiter-Glo® reagent (10 μL CellTiter-Glo® reagent+50 μL of PBS) was added to each well. Cells were allowed to lyse and to equilibrate in CellTiter-Glo® reagent by 5 min incubation on a plate shaker followed by 10 min incubation at room temperature. Luminescence signals were then acquired on a Synergy Neo2 plate reader (Biotek).
The effect of each compound dilution on the proliferation of cancer cell lines was expressed in % inhibition and calculated as follows. An internal 100% inhibition control (1 μM of trametinib; cat #HY-10999; MedChem Express; CAS #871700-17-3) was included in each plate and used as a measure of CellTiter-Glo® signal background. The value obtained for trametinib was subtracted from each data point. The average of DMSO (vehicle) controls (set as 0% inhibition) was established and used to calculate % inhibition: % inhibition=100*(1−((CellTiter-Glo® signalcompound)/(CellTiter-Glo® signalDMSO)))
The ability of each compound to inhibit proliferation was expressed as a EC50 value obtained by plotting the effect values for each data point of a dilution series and fitting the obtained curves using a log(agonist) versus response-variable slope (four parameters) function using GraphPadPrism (V7.0) or Dotmatics Screening Ultra platform.
(In general: Cellular ATP, detected with luciferase, serves as a proxy for viable cell number.)

[6] abbreviates: HCT116 cells, class symbol before the bracket.

Molecules are shown by their SMILES. Where two headings read alike, the source gives them in different places.

Broadly, the IC50 is the point on the concentration scale where inhibition reaches its midpoint. By EC50 is commonly meant the concentration that produces a half-maximal response.

Take `Cc1c(Cl)cccc1S(=O)(=O)Nc1ccc(F)c(Nc2ncnc3ccc(-n4cnc5c(N)cccc54)nc23)c1F`: in assay [1] (HCT116, Table D), the “HCT116 pERK % Ymin” value was 4.8% and the IC50 was in the range of 0.03 to 0.3 µM. Further, the “HCT116 pERK Ymin %” value in assay [1] (HCT116 cells) stood at 2.9%. For the same compound, the IC50 in assay [1] (setting [6]) was < 0.5 µM. Also, in assay [2], the “NCIH1755 pERK % Ymin” value is 30% and the IC50 was < 0.03 µM. Further, in assay [3], the “NCIH2087 pERK % Ymin” value is recorded as 6% and the IC50 is < 0.03 µM. Also, in assay [4], the “NCI-H358 pERK % Ymin” value came to 3% and the IC50 lay in the range of 0.03 to 0.3 µM. Moreover, in assay [5], the half-maximal effective concentration (EC50) fell in the range of 0.3 to 3 µM.
For `O=S(=O)(Nc1ccc(F)c(Nc2ncnc3ccc(-n4nnc5ccccc54)nc23)c1F)c1cccc(Cl)c1Cl`, in assay [1] (HCT116, Table D), the “HCT116 pERK % Ymin” value is given as −11% and the IC50 lay within 0.03 to 0.3 µM. In addition, the “HCT116 pERK Ymin %” value in assay [1] (HCT116 cells) was −1.9%. The IC50 in assay [1] (setting [6]) is < 0.5 µM. Further, in assay [2], the “NCIH1755 pERK % Ymin” value is −3% and the concentration for half-maximal inhibition (IC50) is < 0.03 µM. In assay [3], the “NCIH2087 pERK % Ymin” value is on record as 19% and the IC50 was < 0.03 µM. For the same compound, in assay [4], the “NCI-H358 pERK % Ymin” value turned out to be 23% and the IC50 was < 0.03 µM. The EC50 in assay [5] is 0.3 to 3 µM.
Regarding `Cc1c(Cl)cccc1S(=O)(=O)Nc1ccc(F)c(Nc2ncnc3ccc(-n4cc(C(=O)N5CCN(C)CC5)c5ccccc54)nc23)c1F`, the “HCT116 pERK % Ymin” value in assay [1] (HCT116, Table D) is −8.9%. Moreover, in assay [1] (HCT116 cells), the “HCT116 pERK Ymin %” value is on record as −7.6%. Also, the IC50 is 0.03 to 0.3 µM in assay [1] (HCT116, Table D); < 0.5 µM in assay [1] (setting [6]); < 0.03 µM in assay [2]; < 0.03 µM in assay [3]; 0.03 to 0.3 µM in assay [4]. In assay [2], the “NCIH1755 pERK % Ymin” value came out at 25%. In assay [3], the “NCIH2087 pERK % Ymin” value is 17%. Further, the “NCI-H358 pERK % Ymin” value in assay [4] was −4%. Further, the EC50 in assay [5] is < 0.03 µM.
Take `O=S(=O)(Nc1ccc(F)c(Nc2ncnc3ccc(-n4cnc5c(N6CCC7(CCCC7)CC6)cccc54)nc23)c1F)c1cccc(Cl)c1Cl`: in assay [1] (HCT116, Table D), the “HCT116 pERK % Ymin” value was −4% and the IC50 was in the range of 0.03 to 0.3 µM. Further, in assay [1] (HCT116 cells), the “HCT116 pERK % Ymin (lowest value of the IC50 curve)” value was −4% and the IC50 was < 0.5 µM. In assay [2], the “NCIH1755 pERK % Ymin” value turned out to be 5% and the IC50 was < 0.03 µM. Further, in assay [3], the “NCIH2087 pERK % Ymin” value is given as 11% and the IC50 is < 0.03 µM. In addition, in assay [4], the “NCI-H358 pERK % Ymin” value is 25% and the half-inhibitory concentration (IC50) lay in the range of 0.03 to 0.3 µM. Besides, in assay [5], the 50% effective concentration (EC50) lay within 0.3 to 3 µM.
In the case of `Cc1c(Cl)csc1S(=O)(=O)Nc1ccc(F)c(Nc2ncnc3ccc(-n4cc(S(=O)(=O)N(C)CCN(C)C)c5ccccc54)nc23)c1F`, in assay [1] (HCT116, Table D), the “HCT116 pERK % Ymin” value was 8% and the IC50 was in the range of 0.03 to 0.3 µM. Moreover, in assay [1] (HCT116 cells), the “HCT116 pERK % Ymin (lowest value of the IC50 curve)” value stood at 8% and the IC50 is < 0.5 µM. Also, in assay [2], the “NCIH1755 pERK % Ymin” value amounted to 4% and the half-maximal inhibitory concentration (IC50) was < 0.03 µM. In addition, in assay [3], the “NCIH2087 pERK % Ymin” value is −5% and the 50% inhibitory concentration (IC50) is < 0.03 µM. In addition, in assay [4], the “NCI-H358 pERK % Ymin” value is given as 8% and the IC50 was in the range of 0.03 to 0.3 µM. The EC50 in assay [5] was 0.3 to 3 µM.

The values above are taken from US12139488B2, “Pyrido[3,2-d]pyrimidine compounds uses thereof for treating a proliferative disease” (Universite de Montreal, priority 2021, dated 2024).
